Binding of CDR-mutated scFvs to a peptide of the spike HR2 region

Values reported by Li et al. 2023, doi:10.1038/s41467-023-39022-2 (FLAb copy).

The target is the same throughout: PDVDLGDISGINAS, from the HR2 region of SARS-CoV-2 spike.

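The starting antibody came from a phage panning campaign against this peptide. These sequences belong to a second round, designed from the earlier measurements on random variants of the parent. Group labels follow the data file (Ctrl: baseline library sampled from a position-specific scoring matrix, with some repeated check sequences; Rand: our label for a block that the file lists under HC and that is probably the random mutants of the ten best first-round binders; En: ensemble of fine-tuned language models; GP: Gaussian process model; HC: hill climbing; Gen: genetic algorithm; Gibbs: Gibbs sampling; a sequence that several methods proposed may carry one label only). In AlphaSeq, yeast of one mating type display the scFv and yeast of the other type display the target. Pairs that bind mate more often; barcode pairs of the diploids are counted by sequencing. Scores were corrected for input abundance and mapped to Kd with protein pairs of known affinity run in the same pool. Mating was done six times.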

Parent: Ab-14, a human scFv built as VH, three GGGGS repeats, VL. Only the CDRs of the light chain vary.
VH: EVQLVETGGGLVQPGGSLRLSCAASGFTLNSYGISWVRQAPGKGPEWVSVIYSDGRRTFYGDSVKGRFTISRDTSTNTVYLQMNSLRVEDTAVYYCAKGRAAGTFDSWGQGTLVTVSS
VL: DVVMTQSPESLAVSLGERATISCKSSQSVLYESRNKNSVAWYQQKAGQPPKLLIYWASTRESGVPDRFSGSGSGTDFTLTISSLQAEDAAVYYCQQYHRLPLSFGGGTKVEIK

Variants are written as CDR1, CDR2 and CDR3 of the light chain (limits as in the source). Parent: KSSQSVLYESRNKNSVA, WASTRES, QQYHRLPLS. The Kd shown is the geometric mean over detected replicates; a lower Kd is a better binder. Where no diploid with the target was found in any replicate, the entry reads "not detected": below detection, most likely a poor binder, though not proof of it. The authors' rule: three or more of the six replicates give a measured affinity, fewer mean a poor binder.

| CDR-L1 | CDR-L2 | CDR-L3 | group | apparent Kd | seen in | empty controls |
|---|---|---|---|---|---|---|
| HITYGMQVLGRHSHSIA | QAETREK | QQYDRLPLA | En_Gen | 3.6 nM | 6 of 6 | 0 of 18 |
| MISGSVMMESRLKNSVA | QTTTRES | QQYDRLPLS | En_HC | 4.5 nM | 6 of 6 | 0 of 18 |
| MMSQVTGSGTRLRNNVA | QTSQREP | QQYDRLPLI | En_Gen | 12 nM | 6 of 6 | 1 of 18 |
| KLGATMNTESTKRNNVA | DLVQREN | QQYFRLPLS | En_Gen | 16 nM | 6 of 6 | 1 of 18 |
| KIQQTHVGNEKKMESIA | QGDQRCQ | QSYDRLPLS | En_Gibbs | 10 nM | 6 of 6 | 0 of 18 |
| SSPQSVLQESENKNSVA | WASTREQ | QQYHRLPCS | Ctrl | not detected | 0 of 6 | 0 of 18 |
| SLSEMEAGRDAANKSIA | AKELMME | QQYHRLPLA | En_Gibbs | 230 nM | 6 of 6 | 0 of 18 |
| KLEQSVPYESRNKNSVA | EASTRES | QQYHRLPLS | GP_Gen | 470 pM | 6 of 6 | 1 of 18 |
| MMSQVTGMGQRHRNNVA | QTSTRED | QQYDRLPLI | En_Gen | 10 nM | 6 of 6 | 2 of 18 |
| KSSSSVLYEERNKNSVA | WAHTRNS | QQYHRLPLS | Ctrl | 140 nM | 1 of 6 | 0 of 18 |
| KSSQSSDYESHNKNSVA | WASTRES | QQYHRLPLS | Ctrl | 67 nM | 6 of 6 | 2 of 18 |
| KSSQSVLYEFRNKNSVA | WASTRES | QQVFRLPLS | Ctrl | not detected | 0 of 6 | 0 of 18 |
| YLSQSVLYESRNKNSVA | NASTRES | QQYHRLPLS | GP_Gen | 670 pM | 6 of 6 | 1 of 18 |
| KLSQSVWMESRNKNSVA | NASTRES | QQYHRLPLS | GP_Gen | 950 pM | 6 of 6 | 3 of 18 |
| SLHDINMMGLANNANVA | NASQLFS | QHYFRLPLQ | En_Gibbs | 3.8 nM | 6 of 6 | 0 of 18 |
| HLGLVTMLEEAVRNSVA | NNSTREE | QQYDRLPLS | En_Gen | not detected | 0 of 6 | 1 of 18 |
| KIQQSMLYESRNSNSVA | NASTRME | QQYHRLPLM | GP_Gibbs | 1.1 nM | 6 of 6 | 0 of 18 |
| KLMQGALYESRNKNSVA | GASTRES | QQYHRLPLS | GP_HC | 1.1 nM | 6 of 6 | 0 of 18 |
| KSSQSELYESRNCNSVA | WAKTRES | QQYHRLPLS | Ctrl | not detected | 0 of 6 | 0 of 18 |
| HLSDSVLYESRNKNSVA | NASTRES | QQYHRLPLW | GP_HC | 410 pM | 6 of 6 | 1 of 18 |
| KVSQSVLMMSRNKNSVA | DNSTSGS | QQYHRLPLS | En_HC | 310 nM | 5 of 6 | 2 of 18 |
| KSQQSVMYESRNNNSVA | RASTRES | QQYHRLPLS | Ctrl | 12 nM | 6 of 6 | 2 of 18 |
| HITMGMYVSGRYKSNIA | QAETREK | QQYDRLPLI | En_Gen | 7.7 nM | 6 of 6 | 0 of 18 |
| KSSWSWLYESRNKNSVA | GASTRES | NQYHRLPLS | Rand | not detected | 0 of 6 | 0 of 18 |
| ILSQSVLMGSHLKNSVA | QASTRFQ | QQYHRLPLM | En_HC | 2.9 nM | 6 of 6 | 0 of 18 |
| QLDWYNSTATAAANSVA | DVAQRMN | QQYMRLPLM | En_Gibbs | 2.1 nM | 6 of 6 | 0 of 18 |
| MISQLYNMGSFAINSVA | QASQRNE | QQYDRLPLM | En_Gen | 10 nM | 6 of 6 | 0 of 18 |
| HMSMLTLQGMRHMNSVA | QMTTRVN | QQYDRLPLM | En_Gen | 9.0 nM | 6 of 6 | 1 of 18 |
| KWSQSVLYESRNKNSVA | WASTLES | QQYHRLPLS | Ctrl | not detected | 0 of 6 | 1 of 18 |
| KLTQSVNYLSRVMNSVA | DNSTREA | QQYFRLPLS | En_HC | 980 pM | 6 of 6 | 2 of 18 |
| KIFQSELYESRQKNSVA | NASDRMS | QQYHRLPLS | GP_Gibbs | 5.8 nM | 6 of 6 | 1 of 18 |
| QLSQVTGHMQVEKNNVA | EMDTREN | QQYDRLPLS | En_Gen | 46 nM | 6 of 6 | 2 of 18 |
| KSSQSDLYESRNKNSVA | EASTRES | QQYHRLPLS | Ctrl+GP_Gen | 800 pM | 12 of 12 | 0 of 36 |
| TVSQVHEMLSRNKNSVA | DVNTRES | QQYDRLPLS | En_HC | 2.5 nM | 6 of 6 | 1 of 18 |
| KFSQWVLYEPRTKNSVA | NASTRES | QQYHRLPLS | GP_HC | 3.1 nM | 6 of 6 | 0 of 18 |
| SLVQEKSVGDYNAGNVA | AGNQLSV | QQYNRLPLS | En_Gibbs | 800 pM | 6 of 6 | 1 of 18 |
| KSSISSLTESRTKNSVA | WASTRES | QQYHRLPLS | Ctrl | 17 nM | 1 of 6 | 1 of 18 |
| KSSQAVLYESRNKNSVA | GASTRES | QQYFRLPLS | Ctrl | 550 pM | 6 of 6 | 1 of 18 |
| HVSQLLTDEMYREYNVA | ETNHVEE | QDYFRLPLI | En_Gibbs | 48 nM | 1 of 6 | 0 of 18 |
| KVLQSVLYEGRNKNSVA | QASTRED | QQYHRLPLS | GP_HC | 1.9 nM | 6 of 6 | 1 of 18 |
| FLAYALDQTGLQKNNIA | QVNLLEN | QQYERLPLA | En_Gibbs | 81 nM | 6 of 6 | 0 of 18 |
| KLDGSFLYESRNKNSVA | EASERES | QQYHRLPLS | GP_Gibbs | 4.3 nM | 6 of 6 | 0 of 18 |
| KSSQSVLYESRNKNSVA | WASTRES | QQYIQLPLS | Ctrl | 82 nM | 2 of 6 | 0 of 18 |
| KAVQSVLYESRNKNSVA | GASTRES | QQYHRLPLI | GP_HC | 6.5 nM | 6 of 6 | 0 of 18 |
| KSSISLLYESRNKNSVA | EASQRES | QQYHRLPLS | GP_HC | 2.6 nM | 6 of 6 | 0 of 18 |
| MISQVMNTLTRNGNNVA | DLAERED | QQYFRLPLS | En_Gen | 24 nM | 6 of 6 | 0 of 18 |
| HISQSVGMTSFNKNSVA | ENSTRED | QQYDRLPLS | En_HC | not detected | 0 of 6 | 1 of 18 |
| SMMFDTSDNYHERNNVA | DGAAIMA | QQYSILPLS | En_Gibbs | 18 nM | 6 of 6 | 1 of 18 |
| KSSQSVLYESRNKNSVA | NANTRES | PQYHRLPLS | Ctrl | 150 nM | 6 of 6 | 1 of 18 |
| KVAERYEMGENFQSSIA | SGAHKVH | QQYYRLPLG | En_Gibbs | 9.3 nM | 6 of 6 | 1 of 18 |
| KVSQSVLMEWRNKNSVA | DASTRES | QQYHRLPLS | GP_HC | 930 pM | 6 of 6 | 1 of 18 |
| KLQQSVPYESRNKNSVA | HASTRES | QQYHRLPLS | GP_Gen | 580 pM | 6 of 6 | 0 of 18 |
| KSSQSVLYESQNKNSVA | WASTRRS | QQYHRLPLS | Ctrl | not detected | 0 of 6 | 0 of 18 |
| MISDLTMGGSRNKNSVA | DLSTRGS | QQYHRLPLS | En_HC | 620 pM | 6 of 6 | 0 of 18 |
| KLSQSDLYESRNKNSVA | GASQRES | QQYHRLPLS | GP_Gen | 340 pM | 6 of 6 | 0 of 18 |
| MISQLYNMGSFAINSVA | QASQRNA | QQYDRLPLE | En_Gen | 30 nM | 6 of 6 | 1 of 18 |
| KLSQSWGYESRNKNSVA | NASTRES | QQYHRLPLS | GP_Gen | 520 pM | 6 of 6 | 0 of 18 |
| KVYGGINFQSSARNSIA | EEVMRTK | QQYARLPLS | En_Gen | 6.8 nM | 6 of 6 | 0 of 18 |
| KSSQSSLYESRNKNSVA | WASTLES | QQYHRLPLS | Ctrl | 98 nM | 4 of 6 | 0 of 18 |
| HLSDLLSYGKDLQNAVA | GVQTRMT | QQYARLPLF | En_Gibbs | 1.6 nM | 6 of 6 | 0 of 18 |
| KVSQSWLMESRNKNSVA | EASTRTS | QQYHRLPLS | GP_HC | 560 pM | 6 of 6 | 1 of 18 |
| KLSQSKLYESRNKNSVA | NASTRLS | QQYHRLPLS | GP_Gen | 940 pM | 6 of 6 | 0 of 18 |
| KLQFSEEYESRNKNSVA | SAHQREV | QQYHRLPLS | GP_Gibbs | 310 pM | 6 of 6 | 2 of 18 |
| TLTQVTMVESYVKNSVA | QASTREE | QDYHRLPLS | En_HC | 1.7 nM | 6 of 6 | 0 of 18 |
| KFSQSVLYESRNKNSVA | RATTRES | QQYHRLPLS | Ctrl | 1.4 nM | 6 of 6 | 1 of 18 |
| KSSQSFLYESRNKNSVA | NASTRES | QQYHRLPLS | Ctrl | 1.8 nM | 6 of 6 | 0 of 18 |
| KMSQSVLYESKNKNSVA | WASTRES | QQYHRLPLS | Ctrl | 87 nM | 1 of 6 | 0 of 18 |
| MVTQMAMSGMTNKRSVA | NAETRED | QQYHHLPLI | En_Gen | 2.5 nM | 6 of 6 | 2 of 18 |
| TISQVMNTLTRTGNNVA | DLAERES | QQYFRLPLS | En_Gen | 5.1 nM | 6 of 6 | 1 of 18 |
| KSSNSYLYESGNKNSVA | EASTRES | QQYHRLPLS | GP_HC | 1.7 nM | 6 of 6 | 1 of 18 |
| KPSQSVLYESRNKNSVA | WASTRES | NQYHRLPLS | Ctrl | not detected | 0 of 6 | 0 of 18 |

Extract of 5 entries:

CDR-L1,CDR-L2,CDR-L3,group,apparent Kd,seen in,empty controls
KFSQSVLYESRNKNSVA,RATTRES,QQYHRLPLS,Ctrl,1.4 nM,6 of 6,1 of 18
KLSQSWGYESRNKNSVA,NASTRES,QQYHRLPLS,GP_Gen,520 pM,6 of 6,0 of 18
KSSQSFLYESRNKNSVA,NASTRES,QQYHRLPLS,Ctrl,1.8 nM,6 of 6,0 of 18
KPSQSVLYESRNKNSVA,WASTRES,NQYHRLPLS,Ctrl,not detected,0 of 6,0 of 18
SMMFDTSDNYHERNNVA,DGAAIMA,QQYSILPLS,En_Gibbs,18 nM,6 of 6,1 of 18

The parent sequence was in this pool as ten entries: three were never detected, three once, and four in most replicates, with averages from 2.2 nM to 240 nM. Nonspecific signal, from three strains lacking the peptide, appeared in 4% of pairings of all light chain designs, centred on 430 nM (5% of these signals below 38 nM); values are not corrected for it. Also given: how often the same scFv was detected with the empty control strains. Where one sequence has several entries in the source, the replicates are pooled. The range of this assay differs from that of the first round, and the authors advise against merging the two.